Data reported in PMC7415729 (Pharmacology, biochemistry, and behavior, 2020).

Sequences of proteins named here, by UniProt entry; tags and fusion partners are left off.
UniProt P47746, whole entry: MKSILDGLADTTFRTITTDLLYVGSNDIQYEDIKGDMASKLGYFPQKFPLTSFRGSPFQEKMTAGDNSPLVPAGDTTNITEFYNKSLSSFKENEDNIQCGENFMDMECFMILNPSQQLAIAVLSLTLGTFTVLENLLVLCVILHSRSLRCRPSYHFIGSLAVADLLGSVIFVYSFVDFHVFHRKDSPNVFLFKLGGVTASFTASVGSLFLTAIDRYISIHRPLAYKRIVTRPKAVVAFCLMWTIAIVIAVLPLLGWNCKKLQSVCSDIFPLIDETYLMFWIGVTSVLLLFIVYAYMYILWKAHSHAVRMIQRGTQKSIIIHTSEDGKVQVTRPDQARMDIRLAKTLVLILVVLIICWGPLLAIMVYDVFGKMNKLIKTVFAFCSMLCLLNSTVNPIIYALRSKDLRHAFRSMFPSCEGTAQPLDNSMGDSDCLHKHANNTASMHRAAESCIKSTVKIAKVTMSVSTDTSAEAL

Columns and labels:
CB1 receptors [1] = target: T1, CB1 receptors (Mus musculus, UniProt P47746); assay: [35S]GTPγS binding
CB1 receptors [2] = target: T1, CB1 receptors; assay: Competition receptor binding vs [3H]CP-55,940 in mouse brain membranes; settings: displacement of 0.2 nM [3H]CP-55,940, mouse brain membranes, N=3

CCCCCc1cc(O)c2c(c1)OC(C)(C)[C@@H]1CCC(C)=C[C@@H]21 [Δ^9-THC, Δ^9-tetrahydrocannabinol]
G protein activation by 1 μM compound on co-incubation with rimonabant (CB1 receptors [1]; 1 μM compound + rimonabant 100 nM, mouse brain membranes): complete reversal
Emax, increase of [35S]GTPγS binding (CB1 receptors [1]; mouse brain membranes 25 μg, N=3): approximately 142.2 +/− 2.2%
pEC50, [35S]GTPγS binding (CB1 receptors [1]; mouse brain membranes, N=3): 7.672 +/− 0.158
EC50 (CB1 receptors [1]; read-out: potency (EC50), [35S]GTPγS binding, mouse brain membranes 25 μg, N=3): 0.0245 µM
pKi (CB1 receptors [2]): 7.847 +/− 0.12
